Literature values in patent US7314882B2, “Bicyclic heterocycles as cannabinoid receptor modulators” (Bristol-Myers Squibb Company, priority 2005, dated 2008).

Tests used:
[1] = system: smoking behavior; details: highest dose; 14.8% for placebo
[2] = system: body weight and adipose tissue mass; details: chronic administration for two weeks

Compound | patients who stayed abstinent from cigarette smoke [1] | adipose tissue mass [2] | body weight [2]
Cc1c(C(=O)NN2CCCCC2)nn(-c2ccc(Cl)cc2Cl)c1-c1ccc(Cl)cc1 [SR-141716] | 30.2% | – | –
AM-251 | – | decreased adipose tissue mass | substantial body weight reduction
